# Experimental data as given in PubChem BioAssay AID1963317 (National Center for Advancing Translational Sciences (NCATS), 2024).
# By UniProt entry, the sequences of proteins in these tests, tags left out.
# UniProt P00519, whole entry, looked up: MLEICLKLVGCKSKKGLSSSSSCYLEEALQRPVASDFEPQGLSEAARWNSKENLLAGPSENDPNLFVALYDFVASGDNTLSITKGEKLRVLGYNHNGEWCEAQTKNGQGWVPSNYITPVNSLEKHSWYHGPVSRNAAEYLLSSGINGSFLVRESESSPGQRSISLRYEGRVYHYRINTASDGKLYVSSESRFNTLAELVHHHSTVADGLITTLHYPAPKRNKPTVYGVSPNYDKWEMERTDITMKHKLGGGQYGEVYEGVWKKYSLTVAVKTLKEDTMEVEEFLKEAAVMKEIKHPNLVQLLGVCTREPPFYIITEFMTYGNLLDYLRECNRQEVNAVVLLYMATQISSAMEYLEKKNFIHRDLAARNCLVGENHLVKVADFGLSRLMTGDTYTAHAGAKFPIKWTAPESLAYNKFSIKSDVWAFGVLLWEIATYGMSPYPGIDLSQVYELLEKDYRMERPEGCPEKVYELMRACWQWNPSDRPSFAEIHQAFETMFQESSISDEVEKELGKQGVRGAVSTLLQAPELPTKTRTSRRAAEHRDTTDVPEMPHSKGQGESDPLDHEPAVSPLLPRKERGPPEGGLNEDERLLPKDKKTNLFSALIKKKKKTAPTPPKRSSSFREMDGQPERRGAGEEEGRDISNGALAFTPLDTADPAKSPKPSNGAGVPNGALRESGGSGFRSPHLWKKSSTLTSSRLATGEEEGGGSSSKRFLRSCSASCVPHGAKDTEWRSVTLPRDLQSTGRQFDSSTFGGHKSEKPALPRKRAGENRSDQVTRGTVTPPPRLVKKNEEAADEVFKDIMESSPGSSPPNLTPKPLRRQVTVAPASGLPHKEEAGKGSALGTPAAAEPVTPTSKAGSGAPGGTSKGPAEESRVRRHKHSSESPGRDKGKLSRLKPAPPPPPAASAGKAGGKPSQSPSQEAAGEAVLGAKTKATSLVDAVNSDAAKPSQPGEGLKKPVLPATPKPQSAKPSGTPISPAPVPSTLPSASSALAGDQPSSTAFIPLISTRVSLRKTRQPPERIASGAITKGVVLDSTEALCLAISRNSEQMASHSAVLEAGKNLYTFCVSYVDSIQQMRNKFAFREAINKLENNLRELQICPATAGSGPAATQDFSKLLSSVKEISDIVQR
# Only a part is listed here, and it is no random draw. Results filed as inconclusive are left out. Calls of active or inactive are those of the source. The call rests on the fitted dose curve.
# Molecular target: Tyrosine-protein kinase ABL1 (Homo sapiens) (UniProt P00519)
# Assay: ABL1 kinase (ABL1-N-HiBiT) enzymatic inhibition screen - Functional assay
# Conditions: luminescence
# Source text: National Center for Advancing Translational Sciences (NCATS),
# National Institute of Health (NIH), Maryland
# Discovery and optimization of novel protein-binding ligands underlies many of the methods and applications of biology, drug discovery, clinical diagnostics, and environmental toxicology. Assays for detecting the interaction of, for example, a molecule with a macromolecular target also referred to here as the target of interest (TOI) is dependent on a compatible output technology. Depending on the nature and knowledge surrounding the TOI, whether a receptor, enzyme, regulatory subunit or scaffold, or a sequence-defined nucleic acid folded into a complex tertiary structure, assay strategies can vary widely.
# Here we exploit ligand-biased changes in the structural dynamics of the target protein to control reporter alpha complementation allowing a non-competitive, non-functional, non-separation measure of ligand-target interaction. […]
# SEQUENCE No. (e.g., 1, 2, 3, etc.); […] (e.g., C. elegans, Compounds, Incubation, Read, etc.); VALUE and DESCRIPTION. […]
# 7. […] (Functional assay) Luminescence measured using CCD-based camera (ViewLux) with settings as follows: Exposure, 1 sec; Gain, High; Speed, Slow; Binning, 2X. […]
compound,measurement,value
Cc1ccc(NC(=O)c2ccc(CN3CCN(C)CC3)cc2)cc1Nc1nc(-c2cccnc2)cs1,Potency,active: 12.6 µM
